Only a part is listed here, and it is no random draw. Records with an inconclusive call do not appear. Activity calls are given as the source filed them. Calls follow the shape of the full dose curve.
Biological target: Snurportin-1 (Homo sapiens) + GTP-binding nuclear protein Ran (Homo sapiens) + Importin subunit beta-1 (Homo sapiens) (UniProt O95149+P62826+Q14974)
Assay: qHTS Assay for Inhibitors of RanGTP induced Rango (Ran-regulated importin-beta cargo) - Importin beta complex dissociation; also: % of control where 0% means no effect; nearly all actives have a fitted effect of over 45% in size
Conditions: Biochemical FRET Rango-importin beta; at 46.1 µM (top of the series)

SMILES	activity change, negative = inhibition
O=[As](O)(c1ccc(O)cc1)c1ccccc1O	inactive: -1.35%
C[As](=O)(O)c1cccc(C(=O)O)c1	inactive: 3.39%
O=[N+]([O-])c1ccc(-c2cc([N+](=O)[O-])c(O)c([N+](=O)[O-])c2)cc1	inactive: 43.9%
COc1cc(C(=O)NCC2(N3CCOCC3)CCCCC2)ccc1OCC(C)C	inactive: 1.08%
O=[N+]([O-])c1cc([N+](=O)[O-])c(Nc2cccnc2)c([N+](=O)[O-])c1	inactive: -9.98%
O=[N+]([O-])c1ccc2c(c1)C=Nc1ccccc1O2	inactive: -3.52%
Cc1ccc2nc3c(c(C)c2c1)CC(C(Cl)Cl)S3 (stereo not given)	inactive: -7.24%
Cc1ccc(OP(=O)(Nc2ccc([N+](=O)[O-])cn2)Oc2ccc(C)cc2)cc1	inactive: -0.542%
CC(C)(C)c1ccc(OP(C)(=O)Nc2ccc(SC(F)(F)F)cc2)cc1 (stereo not given)	inactive: 19.3%
Cc1cccc(C)c1OP(C)(N)=O (stereo not given)	inactive: -12.9%
COc1ccccc1OP(C)(=O)Nc1ccc(C)cc1 (stereo not given)	inactive: -2.03%
COC(=O)C1(C)COP(=O)(N2CCCCCC2)OC1 (stereo not given)	inactive: 10.3%
Cc1ccc(NP(C)(=O)Oc2ccccc2)c(C)c1 (stereo not given)	inactive: -0.772%
CC(C)c1ccc(OP(=O)(Nc2ccccn2)Oc2ccccc2F)cc1 (stereo not given)	inactive: 27.4%
CCOC(=O)c1ccc(NP(C)(=O)Oc2ccccc2)cc1 (stereo not given)	inactive: 17.4%
ClCCSc1nnc(-c2cccnc2)o1	inactive: 1.05%
Cc1cc(C)cc(OP(C)(N)=O)c1 (stereo not given)	inactive: 9.76%
COc1ccccc1OP(C)(=O)Nc1cc(Cl)ccc1C (stereo not given)	inactive: -13%
CC(C)NC(=O)NP(=O)(Oc1ccccc1)Oc1ccccc1	inactive: 17.2%
CCN(CC)C(=S)SC(NC=O)C(Cl)(Cl)Cl (stereo not given)	inactive: 0.281%
O=C(OC1CN2CCC1CC2)c1cccc2[nH]cnc12 (stereo not given)	inactive: 2.92%
COc1ccc(OP(C)(=O)Nc2cccc(F)c2)cc1 (stereo not given)	inactive: 15.8%
O=[N+]([O-])c1cc([N+](=O)[O-])c(-c2ccn[nH]2)s1	inactive: 1.61%
O=C(OC1CN2CCC1CC2)C12CC3CC(CC(C3)C1)C2 (stereo not given)	inactive: 7.8%

SMILES	activity change, negative = inhibition
Cc1cc(=O)[nH]c(N[N+](=O)[O-])n1	inactive: -0.0903%
CCN(CC)CCCOC(=O)C(O)(c1ccccc1)c1ccccc1	inactive: 8.07%
Cc1c2c(nc3ccccc13)SC(C(Cl)Cl)C2 (stereo not given)	inactive: 5.78%
COc1ccc2nc(NP(=O)(c3ccccc3)c3ccccc3)sc2c1	inactive: 0.113%
COc1cc(I)ccc1[As](=O)(O)O	inactive: 0.145%
O=P1(N(CCCl)CCCl)Nc2ccccc2N1	inactive: 18.2%
O=P1(N(CCCl)CCCl)OCCCN1CCCl (stereo not given)	inactive: -12%
COc1ccc(N/C(=N/P(=O)(N2CCOCC2)N2CCOCC2)N2CCOCC2)cc1	inactive: -2.95%
O=[N+]([O-])c1cc(Oc2ccc([N+](=O)[O-])cc2C(F)(F)F)cc([N+](=O)[O-])c1	inactive: 4.96%
COP1(=S)c2c(C)nn(CCC#N)c2N=C(c2ccc(F)cc2)N1C (stereo not given)	inactive: -6.19%
Cc1cccc(C)c1OP(C)(=O)Nc1ccc(SC(F)(F)F)cc1 (stereo not given)	inactive: 17.6%
CP(=O)(Nc1ccc(SC(F)(F)F)cc1)Oc1ccc(Cl)cc1 (stereo not given)	inactive: 30.7%
CP(=O)(Oc1ccccc1)OC(c1ccccc1)C(F)(F)F (stereo not given)	inactive: 3.8%
O=C(COc1ccccc1)OC1CN2CCC1CC2 (stereo not given)	inactive: -3.66%
CP(=O)(NC(=O)Nc1ccccc1)Oc1ccccc1 (stereo not given)	inactive: 8.84%
CCc1ccc(OP(C)(=O)N2CCN(c3ccc([N+](=O)[O-])cc3)CC2)cc1 (stereo not given)	inactive: 14.5%
Cc1cc(C)cc(OP(C)(=O)Nc2ccc(SC(F)(F)F)cc2)c1 (stereo not given)	inactive: 2.71%
O=C(Nc1ccncc1[N+](=O)[O-])c1ccc([N+](=O)[O-])cc1[N+](=O)[O-]	inactive: 1.2%
CCOC(=O)c1ccc(NP(C)(=O)Oc2ccc(OC)cc2)cc1 (stereo not given)	inactive: -12.6%
CCOC(=O)c1ccc(NC(=O)C(C)(CCl)SC)cc1 (stereo not given)	inactive: 4.27%
O=[N+]([O-])c1cc([N+](=O)[O-])c(O)c([N+](=O)[O-])c1.c1ccc(Oc2ccncc2)cc1	inactive: 4.3%
O=C(OC1CN2CCC1CC2)c1cccc([N+](=O)[O-])c1 (stereo not given)	inactive: 2.01%
CCOP(C)(=S)SCC(=O)NC(C)C(=O)O (stereo not given)	inactive: -5.93%
CP(=O)(Nc1ccccn1)Oc1ccc(Cl)cc1 (stereo not given)	inactive: -8.9%

SMILES	activity change, negative = inhibition
CCC(C)N(CC(C)C)C(=S)SC(NC(C)=O)C(Cl)(Cl)Cl (stereo not given)	inactive: 0.214%
CC1CCNP(=O)(N(CCCl)CCCl)O1 (stereo not given)	inactive: 1.02%
CCOC(=O)Nc1ccc([As](=O)(O)O)c(O)c1	inactive: -10.2%
CCCCOc1ccc(C(=O)NCC2(N3CCCCC3)CCCCC2)cc1OC	inactive: -9.63%
Cc1cc(SC(NC(=O)c2ccccc2)C(Cl)(Cl)Cl)nc(C(C)C)n1 (stereo not given)	inactive: -11.9%
CCOC(=O)Nc1cccc([As](=O)(O)O)c1	inactive: 29.1%
CP(=S)(Nn1cnnc1)Oc1ccccc1 (stereo not given)	inactive: 9.27%
CP(=O)(Nc1ccccc1Br)Oc1ccccc1 (stereo not given)	inactive: -4.64%
O=[N+]([O-])c1ccc(Nc2ccc(Oc3ccc([N+](=O)[O-])cc3[N+](=O)[O-])cc2)c([N+](=O)[O-])c1	inactive: -0.974%
O=P(Nc1ccccn1)(c1cccc2ccccc12)c1cccc2ccccc12	inactive: -13%
Cc1cc(SC(NC=O)C(Cl)(Cl)Cl)ncn1 (stereo not given)	inactive: 2.17%
COc1ccccc1OP(C)(=O)Nc1ccccc1 (stereo not given)	inactive: 3.47%
COc1cc(C2NCCC3(OCCO3)C2(C)C)cc(OC)c1OC.O=[N+]([O-])c1cc([N+](=O)[O-])c(O)c([N+](=O)[O-])c1 (stereo not given)	inactive: 0.589%
Cc1nn(-c2ccccc2)c2c1P(=O)(N1CCOCC1)N(C)C(c1ccccc1)=N2 (stereo not given)	inactive: 15.1%
CC1CCC(C(C)C)C(OP(=O)(Nc2ccccn2)c2ccccc2)C1 (stereo not given)	inactive: -7.36%
Cc1ccc(C(=O)OC2CN3CCC2CC3)cc1 (stereo not given)	inactive: 20.5%
O=C(/C=C/c1ccccc1)OC1CN2CCC1CC2 (stereo not given)	inactive: 10.3%
CCCC1OP(=O)(Nc2ccccc2)OCC1CC (stereo not given)	inactive: 17.4%
CN(C)C1(CNC(=O)c2ccc(S(C)(=O)=O)cc2)CCCCC1	inactive: -3.63%
CC1=C2N=C(C=C3N=C(C(C)=C4[N-][C@@](C)([C@@H]5N=C1[C@](C)(CCC(=O)NC[C@@H](C)OP(=O)([O-])O[C@H]1[C@@H](O)[C@@H](n6cnc7cc(C)c(C)cc76)O[C@@H]1CO)[C@H]5CC(N)=O)[C@@](C)(CC(N)=O)[C@@H]4CCC(N)=O)[C@@](C)(CC(N)=O)[C@@H]3CCC(N)=O)C(C)(C)[C@@H]2CCC(N)=O.[C-]#N.[Co+3]	inactive: -17.9%
O=[N+]([O-])c1cc([N+](=O)[O-])c(Nc2nnnn2CCO)c([N+](=O)[O-])c1	inactive: 30.5%
COc1ccccc1OP(C)(=O)Nc1c(C)cccc1C (stereo not given)	inactive: 1.79%
CN1CCCCC1COC(=O)C1(O)c2ccccc2CCc2ccccc21 (stereo not given)	inactive: 0.786%
O=P1(Nc2ncccn2)COc2ccccc2OC1	inactive: -4.48%

SMILES	activity change, negative = inhibition
Cc1ccc(OCC(=O)OC2CN3CCC2CC3)cc1 (stereo not given)	inactive: 13.8%
O=[As](O)(c1cccs1)c1cccs1	inactive: -0.236%
O=P1(Nc2ccc(Br)cn2)COc2ccccc2OC1	inactive: 1.42%
NS(=O)(=O)c1cccc(NC(=O)COC(=O)C(O)(c2ccccc2)c2ccccc2)c1	inactive: 19.2%
CCCOc1ccc(NP(C)(=O)Oc2ccc(Cl)cc2)cc1 (stereo not given)	inactive: -5.75%
Nc1cccc([As](=O)(O)c2ccccc2)c1	inactive: -15.4%
CP(=O)(Nc1ccc(SC(F)(F)F)cc1)Oc1ccccc1 (stereo not given)	inactive: 11.8%
CCOP(=O)(Nc1ccc(C)cn1)OCC	inactive: 11.7%
CN(CCCl)Cc1cc(Cl)c(NC2=NCCN2)c(Cl)c1	inactive: 4.72%
O=P1(Nc2ccccn2)COc2ccccc2OC1	inactive: -14.7%
CCC1=CC2Cc3nc4ccc(Cl)cc4c(N)c3C(C1)C2 (stereo not given)	inactive: -13.2%
O=[N+]([O-])c1cc([N+](=O)[O-])c(-n2nnc3ccccc32)c([N+](=O)[O-])c1	inactive: 21.5%
CCOP(=O)(NC(=NC(C)c1ccccc1)NC(C)c1ccccc1)OCC (stereo not given)	inactive: -0.961%
Clc1n[nH]nc1-c1nn[nH][15n]1	inactive: 0.656%
CC(C)(C)C(=O)NC(Sc1ncccn1)C(Cl)(Cl)Cl (stereo not given)	inactive: 15.7%
O=[N+]([O-])c1cc([N+](=O)[O-])c(-c2cnn(-c3ccccc3)c2)c([N+](=O)[O-])c1	inactive: 9.43%
CC1(CBr)Cn2c(nc3ccccc3c2=O)S1 (stereo not given)	inactive: 7.48%
Cc1nc2ccc3ccccc3c2s1.O=[N+]([O-])c1cc([N+](=O)[O-])c(O)c([N+](=O)[O-])c1	inactive: 0.386%
CC(C)/C=N\N=C(\N)N[N+](=O)[O-]	inactive: -10.5%
CN(C(=O)Cc1ccc(Cl)c(Cl)c1)[C@@H]1CCCC[C@H]1N1CCCC1	inactive: 22.2%
O=[As](O)(O)c1cccnc1	inactive: 12.9%
COc1cc(C(=O)NCC2(N3CCOCC3)CCCCC2)cc(Cl)c1OC(C)C	inactive: 1.68%
CS(=O)(=O)c1ccc(Cl)c(NC(=O)COC(=O)C(O)(c2ccccc2)c2ccccc2)c1	inactive: -1.76%
